What all share (experiment): FOREST: bead pull-down of RNA structure library v1, barcode microarray; U1A/LIN28A: 20 mM HEPES pH 7.5, 80 mM KCl, 20 mM NaCl, 10% glycerol, 2 mM DTT, 0.1 ug/uL BSA, 4 C; BG4/CIRBP/DHX36: 10 mM Tris-HCl pH 7.5, 100 mM KCl (or LiCl),; high values mean tight binding
In one test the target is T1, LIN28A (human?, UniProt Q9H9Z2 1-209).
T1 sequence: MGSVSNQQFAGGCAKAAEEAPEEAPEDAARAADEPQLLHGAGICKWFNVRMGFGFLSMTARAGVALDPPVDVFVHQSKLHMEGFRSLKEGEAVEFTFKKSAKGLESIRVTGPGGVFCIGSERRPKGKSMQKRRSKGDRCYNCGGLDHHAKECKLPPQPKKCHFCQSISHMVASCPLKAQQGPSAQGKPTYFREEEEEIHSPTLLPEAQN

The next test concerns the target T2, CIRBP (Homo sapiens, UniProt Q14011 1-172).
T2 sequence: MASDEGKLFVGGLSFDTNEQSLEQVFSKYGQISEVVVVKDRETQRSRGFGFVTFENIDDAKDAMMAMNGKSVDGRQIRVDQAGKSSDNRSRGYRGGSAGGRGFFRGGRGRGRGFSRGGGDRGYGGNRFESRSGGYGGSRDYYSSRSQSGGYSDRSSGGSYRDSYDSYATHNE

Another test addresses T3, DHX36 (Homo sapiens, UniProt Q9H2U1 1-1008).
T3 sequence: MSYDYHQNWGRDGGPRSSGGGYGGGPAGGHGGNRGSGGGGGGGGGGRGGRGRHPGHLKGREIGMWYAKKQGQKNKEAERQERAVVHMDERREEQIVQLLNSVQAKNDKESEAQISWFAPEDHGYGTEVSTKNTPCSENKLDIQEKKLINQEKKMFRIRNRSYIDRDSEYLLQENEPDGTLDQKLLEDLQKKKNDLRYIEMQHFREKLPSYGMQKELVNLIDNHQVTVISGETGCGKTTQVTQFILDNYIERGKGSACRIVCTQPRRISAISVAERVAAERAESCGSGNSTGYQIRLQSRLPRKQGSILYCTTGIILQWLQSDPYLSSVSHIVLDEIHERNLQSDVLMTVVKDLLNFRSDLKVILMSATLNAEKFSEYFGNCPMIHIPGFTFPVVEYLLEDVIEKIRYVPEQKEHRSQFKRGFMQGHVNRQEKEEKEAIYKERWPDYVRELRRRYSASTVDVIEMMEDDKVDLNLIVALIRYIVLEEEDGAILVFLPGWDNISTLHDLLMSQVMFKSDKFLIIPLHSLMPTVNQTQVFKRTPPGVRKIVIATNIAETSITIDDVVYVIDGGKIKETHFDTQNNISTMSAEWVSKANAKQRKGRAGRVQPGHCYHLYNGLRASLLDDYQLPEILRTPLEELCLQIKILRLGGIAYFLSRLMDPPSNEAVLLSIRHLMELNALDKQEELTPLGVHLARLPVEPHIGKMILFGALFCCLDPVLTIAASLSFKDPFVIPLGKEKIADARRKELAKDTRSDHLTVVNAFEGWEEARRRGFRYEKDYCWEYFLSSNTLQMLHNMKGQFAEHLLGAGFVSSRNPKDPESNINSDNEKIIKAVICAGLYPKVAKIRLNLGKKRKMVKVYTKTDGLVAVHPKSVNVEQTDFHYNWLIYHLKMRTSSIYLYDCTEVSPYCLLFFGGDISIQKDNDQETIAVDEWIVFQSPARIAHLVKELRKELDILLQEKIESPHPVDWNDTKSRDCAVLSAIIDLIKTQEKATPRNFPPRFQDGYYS

Some of the results follow.

B1: hsa-mir-378c (structured_RNA)
RNA: GGGAGCAGUCUCAGGCAUUCGCAUUCAAGGUGUACGAAGUUUCAGCGUGGAGUCGGGUCAGACUUCAAGCUGAAGCUUCGUGCAC
For the molecule B1, the binding signal with LIN28A is -1.43 z-score; with CIRBP, 0.724 z-score; with DHX36 it was 0.0251 z-score.

B2: hsa-mir-320b-2 (structured_RNA)
RNA: GGGAAAAGAAACCAUUAGCUGGAGACACGGUGUACGAAGUUUCAGCAUUUCCCAAAGUUGGGAAAAGCUGAAGCUUCGUGCAC
Take B2: the binding signal is -1.39 z-score with LIN28A, -0.604 z-score in the test with CIRBP and -0.642 z-score in the test with DHX36.

B3: hsa-mir-8068 (structured_RNA)
RNA: GGGACCUAACGGUAGCGAGCACUAAUUGGGUGUACGAAGUUUCAGCUUGUGGCAAUACAGGCUGAAGCUUCGUGCAC
With B3, the values for the binding signal with LIN28A, with CIRBP and with DHX36 were -1.42 z-score, -0.859 z-score and 0.346 z-score, respectively.

B4: hsa-mir-548m (structured_RNA)
RNA: GGGAAUCACCGGUGUUGAUUGCACAUCCGGUGUACGAAGUUUCAGCUUUGUCAUUAAAGUAAUGCAAAGCUGAAGCUUCGUGCAC
Consider B4, for which the binding signal is -1.36 z-score with LIN28A, -1.3 z-score with CIRBP and 0.765 z-score with DHX36.

B5: hsa-mir-320d-1 (structured_RNA)
RNA: GGGAAUGCAGGUUUCAGCCGCGAUCAUAGGUGUACGAAGUUUCAGCUCUUCCCAAAGUUGAGAAAAGCUGAAGCUUCGUGCAC
Consider B5, for which the binding signal in the test with LIN28A is -1.36 z-score; in the test with CIRBP, -0.532 z-score; with DHX36, -0.574 z-score.

B6: hsa-mir-4282 (structured_RNA)
RNA: GGGAAAGGAUGCGGCAGUCCACUCCUUAGGUGUACGAAGUUUCAGCUUUAGUAUGCCACAUUUCUAAAGCUGAAGCUUCGUGCAC
For the molecule B6, the binding signal with LIN28A is -1.36 z-score; in the test with CIRBP, -0.832 z-score; with DHX36, -0.826 z-score.

B7: hsa-mir-4425 (structured_RNA)
RNA: GGGAAGAACACCCAUUUGAUGGCAUGGGGGUGUACGAAGUUUCAGCAACAGCUUUGCGAAGUGUUGUUGCUGAAGCUUCGUGCAC
With B7, the binding signal with LIN28A was -1.38 z-score; in the test with CIRBP, -0.256 z-score; with DHX36, -0.943 z-score.

B8: PARIS_ID13 (structured_RNA)
RNA: GGGACUCGGCGCAGAUAAAAGCUAGCCUGGUGUACGAAGUUUCAGCGCAAUGGAAUGUAAUGAUCAUCACUUUUCAUUAUGCGCUGAAGCUUCGUGCAC
With B8, the binding signal in the test with LIN28A was -1.35 z-score; in the test with CIRBP, -0.117 z-score; with DHX36, 0.174 z-score.

B9: hsa-mir-7845 (structured_RNA)
RNA: GGGAAGAAUGUAACCGCGUAUGCUCACCGGUGUACGAAGUUUCAGCUGGCGACACUCGCGCCAGCUCCCGGGACGGCUGGGCUCGGGCUGGUCGCCGAGCUGAAGCUUCGUGCAC
B9: the binding signal with LIN28A is -1.44 z-score; with CIRBP, -1.11 z-score; with DHX36, -0.294 z-score.

B10: hsa-mir-548f-1 (structured_RNA)
RNA: GGGAACGAAACAACUCAGGCAGCCCUUCGGUGUACGAAGUUUCAGCUUUUGACAUUACUUUCAAAGACAAAAGCUGAAGCUUCGUGCAC
Consider B10, for which the binding signal with LIN28A was -1.36 z-score; with CIRBP, -1.32 z-score; with DHX36, -0.971 z-score.

B11: hsa-mir-155 (structured_RNA)
RNA: GGGAAAGGCUAAGGCCCAAUCAUGCGUAGGUGUACGAAGUUUCAGCGGGGUUUUUGCCUCCAACUGACUCCGCUGAAGCUUCGUGCAC
B11: the binding signal with LIN28A was -1.44 z-score; with CIRBP, -0.605 z-score; with DHX36, -0.142 z-score.

B12: hsa-mir-451b (structured_RNA)
RNA: GGGACCCCUGGUGUUACAAUAGCAGAUCGGUGUACGAAGUUUCAGCCAUUACUAAACUCAGUAAUGGCUGAAGCUUCGUGCAC
For the molecule B12, the binding signal was -1.37 z-score with LIN28A, -0.167 z-score with CIRBP and -0.733 z-score in the test with DHX36.

B13: hsa-mir-5701-1_5701-2_5701-3 (structured_RNA)
RNA: GGGAGGCAGCUUCCGAAAACGCAAUAUUGGUGUACGAAGUUUCAGCGAUUGGUUAGCCUAAGACUUGUUCUGAUCCAAUCGCUGAAGCUUCGUGCAC
As to B13, the values for the binding signal with LIN28A, in the test with CIRBP and in the test with DHX36 were -1.34 z-score, -0.806 z-score and -1.29 z-score, respectively.

B14: hsa-mir-4472-2 (structured_RNA)
RNA: GGGACCUUCCAGCGGCAAUUCUUAAGGUGGUGUACGAAGUUUCAGCUUUUUGUUUUUGAGACAGAGUGCUGAAGCUUCGUGCAC
B14: the binding signal with LIN28A was -1.4 z-score; with CIRBP, 0.471 z-score; in the test with DHX36, -0.672 z-score.

B15: hsa-mir-202 (structured_RNA)
RNA: GGGAGCUUUACUAUUUCGGGACGGAGUGGGUGUACGAAGUUUCAGCUUCUUUGAGGAUCUGGCCUAAAGAGGCUGAAGCUUCGUGCAC
On to B15, for which the binding signal was -1.35 z-score with LIN28A, -0.39 z-score with CIRBP and -0.984 z-score with DHX36.

B16: hsa-mir-320c-2 (structured_RNA)
RNA: GGGAAGUCUGCGGAAGUCAGUUUCGAUCGGUGUACGAAGUUUCAGCUCUUCCCAGAAUUGGGAAAAGCUGAAGCUUCGUGCAC
For B16, the figures for the binding signal with LIN28A, in the test with CIRBP and with DHX36 were -1.34 z-score, -0.0315 z-score and -1.17 z-score, respectively.

B17: hsa-mir-567 (structured_RNA)
RNA: GGGAGAAGCGUUGAUGAGCAUCUAACGCGGUGUACGAAGUUUCAGCCAUUCUUUGCUAGCUGAAGCUUCGUGCAC
As for B17, the binding signal with LIN28A is -1.36 z-score; with CIRBP, -0.767 z-score; with DHX36 it was -1.14 z-score.

B18: hsa-mir-521-2 (structured_RNA)
RNA: GGGAAGAUACUCCUGCAAUGCCGCAAAUGGUGUACGAAGUUUCAGCAAUUUUCUCUUGUCUAAAAGAAAAGAACGGCUGAAGCUUCGUGCAC
With B18, the binding signal is -1.44 z-score with LIN28A, -0.109 z-score with CIRBP and -0.966 z-score with DHX36.

B19: hsa-mir-1279 (structured_RNA)
RNA: GGGAAGACCUAUACCUUAGCUGCCAAGUGGUGUACGAAGUUUCAGCUUCUAAUGCCAAGAAGCUGAAGCUUCGUGCAC
Take B19: the binding signal is -1.37 z-score with LIN28A, 0.159 z-score with CIRBP and -0.0152 z-score in the test with DHX36.

B20: hsa-mir-651 (structured_RNA)
RNA: GGGAAAUGCGUUAAUAAGACCGAUUGUCGGUGUACGAAGUUUCAGCCUUUUGUUCAAAUAAAAAUGCAAAAGGCUGAAGCUUCGUGCAC
For B20, the figures for the binding signal with LIN28A, in the test with CIRBP and in the test with DHX36 were -1.42 z-score, -1.27 z-score and -1.54 z-score, respectively.

B21: hsa-mir-362 (structured_RNA)
RNA: GGGAAUGCGCAAAGGUUCAUAAGUCACCGGUGUACGAAGUUUCAGCUGAGUGCUAUUUCAGUGCAACAGCUGAAGCUUCGUGCAC
With B21, the binding signal with LIN28A is -1.36 z-score; in the test with CIRBP, -1.1 z-score; in the test with DHX36 it was -0.307 z-score.

B22: hsa-mir-21 (structured_RNA)
RNA: GGGAACAGGGUUGGACUAAGUGUACCUCGGUGUACGAAGUUUCAGCGUUGACUGUUGAAUCUCAUGGCAACGCUGAAGCUUCGUGCAC
Regarding B22, the binding signal was -1.35 z-score with LIN28A, -0.623 z-score with CIRBP and -1.04 z-score in the test with DHX36.

B23: hsa-mir-519d (structured_RNA)
RNA: GGGCAAGGGCAGCUUACGGGCUAGAGUCGGUGUACGAAGUUUCAGCUCUGUUUGUUUUCUCUUAAACAGCUGAAGCUUCGUGCAC
On to B23, for which the binding signal with LIN28A was -1.36 z-score; with CIRBP, -0.712 z-score; with DHX36, -0.438 z-score.

B24: hsa-mir-335 (structured_RNA)
RNA: GGGAGAACUCUCCCACGGGAAAUACGUCGGUGUACGAAGUUUCAGCAAAAUGUUUGUCAUAAACCGUUUUGCUGAAGCUUCGUGCAC
B24: the binding signal with LIN28A is -1.4 z-score; with CIRBP, -2.21 z-score; with DHX36, -0.439 z-score.

B25: hsa-mir-507 (structured_RNA)
RNA: GGGAAAUGCAUUACCAUUUACCCACCCGGGUGUACGAAGUUUCAGCCAUGCAUGUGUCUAGAAAUAUGUUUUGCUGAAGCUUCGUGCAC
In the case of B25, the binding signal in the test with LIN28A is -1.38 z-score; with CIRBP, -0.575 z-score; in the test with DHX36 it was 0.301 z-score.

B26: hsa-mir-4750 (structured_RNA)
RNA: GGGAACAAGUCAAGGACUACUAGCUAUGGGUGUACGAAGUUUCAGCUGAGUGCCGACUGGCGCCUGGCUGAAGCUUCGUGCAC
On to B26, for which the binding signal with LIN28A was -1.38 z-score; with CIRBP it was -0.51 z-score; in the test with DHX36 it was -0.374 z-score.

Values taken from PMC7723054.
